Earlier results as cited in patent US20130273057A1, “METHODS AND COMPOSITIONS FOR THE TREATMENT AND DIAGNOSIS OF VASCULAR INFLAMMATORY DISORDERS OR ENDOTHELIAL CELL DISORDERS” (Beth Israel Deaconess Medical Center, Inc., priority 2007, published 2013).

Sequences of proteins named here, by UniProt entry; tags and fusion partners are left off. Residues count along the entry.
UniProt P35968, 20-1356: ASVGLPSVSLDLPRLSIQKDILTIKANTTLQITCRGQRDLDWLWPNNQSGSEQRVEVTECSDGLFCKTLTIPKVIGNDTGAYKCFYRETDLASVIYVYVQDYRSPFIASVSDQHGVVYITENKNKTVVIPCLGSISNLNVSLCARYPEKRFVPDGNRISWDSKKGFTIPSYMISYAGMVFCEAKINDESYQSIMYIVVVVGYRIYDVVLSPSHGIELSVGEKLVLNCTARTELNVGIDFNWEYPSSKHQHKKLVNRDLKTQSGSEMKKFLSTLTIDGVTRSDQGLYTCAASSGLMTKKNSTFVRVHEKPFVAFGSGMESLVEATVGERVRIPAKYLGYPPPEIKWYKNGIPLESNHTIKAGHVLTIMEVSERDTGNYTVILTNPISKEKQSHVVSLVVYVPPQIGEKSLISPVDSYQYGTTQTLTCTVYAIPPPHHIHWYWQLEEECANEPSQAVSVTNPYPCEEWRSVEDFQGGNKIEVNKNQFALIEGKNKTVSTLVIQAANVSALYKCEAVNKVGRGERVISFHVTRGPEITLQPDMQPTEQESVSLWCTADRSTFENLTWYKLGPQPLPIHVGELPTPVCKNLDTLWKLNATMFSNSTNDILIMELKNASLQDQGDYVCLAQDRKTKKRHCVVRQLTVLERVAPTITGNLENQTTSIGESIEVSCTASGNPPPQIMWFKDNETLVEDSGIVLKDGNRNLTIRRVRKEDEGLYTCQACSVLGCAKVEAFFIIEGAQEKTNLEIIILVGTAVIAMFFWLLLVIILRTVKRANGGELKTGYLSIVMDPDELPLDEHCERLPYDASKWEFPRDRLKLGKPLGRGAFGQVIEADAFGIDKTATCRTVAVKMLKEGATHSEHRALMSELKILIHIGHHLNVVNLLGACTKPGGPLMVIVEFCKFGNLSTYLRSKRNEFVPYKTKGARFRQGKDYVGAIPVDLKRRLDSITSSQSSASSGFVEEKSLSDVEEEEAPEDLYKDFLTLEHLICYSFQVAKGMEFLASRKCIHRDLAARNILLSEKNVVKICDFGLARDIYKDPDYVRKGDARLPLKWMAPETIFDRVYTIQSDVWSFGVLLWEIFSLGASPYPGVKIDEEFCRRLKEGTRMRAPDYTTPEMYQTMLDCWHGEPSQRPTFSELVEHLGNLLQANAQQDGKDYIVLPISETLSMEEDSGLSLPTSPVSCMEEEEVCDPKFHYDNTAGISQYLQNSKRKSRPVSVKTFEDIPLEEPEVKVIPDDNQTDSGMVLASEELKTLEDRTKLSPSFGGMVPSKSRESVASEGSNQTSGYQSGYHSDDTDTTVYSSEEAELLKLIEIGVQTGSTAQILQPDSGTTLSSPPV

Molecular target: KDR (Homo sapiens, UniProt P35968)
Conditions: read-out: Kd of VEGF binding to KDR; cited from earlier work

VEGF
Kd: 0.075 nM
